Results published in ChEMBL document CHEMBL1155538 (Bioorg Med Chem Lett, 2010).

Amino acid sequences for entries named in this document (tags omitted).
UniProt P23975, whole entry: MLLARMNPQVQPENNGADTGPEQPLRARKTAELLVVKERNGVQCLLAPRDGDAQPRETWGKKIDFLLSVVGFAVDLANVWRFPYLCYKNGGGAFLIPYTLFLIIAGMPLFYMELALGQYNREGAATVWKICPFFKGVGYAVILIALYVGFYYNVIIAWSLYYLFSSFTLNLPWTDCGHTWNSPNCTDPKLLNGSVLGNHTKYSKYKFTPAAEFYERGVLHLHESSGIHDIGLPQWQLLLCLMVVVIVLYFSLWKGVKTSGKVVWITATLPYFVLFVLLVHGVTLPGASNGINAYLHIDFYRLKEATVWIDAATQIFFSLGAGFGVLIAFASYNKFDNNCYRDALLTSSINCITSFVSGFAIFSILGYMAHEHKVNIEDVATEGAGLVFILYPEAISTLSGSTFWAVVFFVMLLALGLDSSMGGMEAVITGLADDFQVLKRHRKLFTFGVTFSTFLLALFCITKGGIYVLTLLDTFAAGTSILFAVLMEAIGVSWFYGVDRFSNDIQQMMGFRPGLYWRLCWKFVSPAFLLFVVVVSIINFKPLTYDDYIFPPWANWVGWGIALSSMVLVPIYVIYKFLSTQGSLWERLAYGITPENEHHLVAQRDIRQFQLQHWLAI
UniProt Q01959, whole entry: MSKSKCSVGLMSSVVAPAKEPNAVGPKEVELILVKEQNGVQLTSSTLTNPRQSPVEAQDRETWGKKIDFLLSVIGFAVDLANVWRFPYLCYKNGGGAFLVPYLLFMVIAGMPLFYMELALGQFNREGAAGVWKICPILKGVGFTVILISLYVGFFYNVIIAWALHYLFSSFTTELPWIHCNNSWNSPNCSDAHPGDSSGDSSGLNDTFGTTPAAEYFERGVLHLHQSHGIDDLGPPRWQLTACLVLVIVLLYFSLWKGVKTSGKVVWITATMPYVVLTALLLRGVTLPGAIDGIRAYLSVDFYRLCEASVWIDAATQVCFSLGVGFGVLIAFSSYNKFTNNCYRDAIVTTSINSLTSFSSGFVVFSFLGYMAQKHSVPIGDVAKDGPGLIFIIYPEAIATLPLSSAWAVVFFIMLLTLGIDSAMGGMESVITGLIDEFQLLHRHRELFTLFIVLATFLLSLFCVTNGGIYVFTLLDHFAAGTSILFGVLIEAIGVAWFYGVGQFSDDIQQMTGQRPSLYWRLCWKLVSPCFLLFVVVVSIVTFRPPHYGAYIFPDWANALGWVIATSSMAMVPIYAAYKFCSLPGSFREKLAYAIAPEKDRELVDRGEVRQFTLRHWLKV
UniProt P31645, whole entry: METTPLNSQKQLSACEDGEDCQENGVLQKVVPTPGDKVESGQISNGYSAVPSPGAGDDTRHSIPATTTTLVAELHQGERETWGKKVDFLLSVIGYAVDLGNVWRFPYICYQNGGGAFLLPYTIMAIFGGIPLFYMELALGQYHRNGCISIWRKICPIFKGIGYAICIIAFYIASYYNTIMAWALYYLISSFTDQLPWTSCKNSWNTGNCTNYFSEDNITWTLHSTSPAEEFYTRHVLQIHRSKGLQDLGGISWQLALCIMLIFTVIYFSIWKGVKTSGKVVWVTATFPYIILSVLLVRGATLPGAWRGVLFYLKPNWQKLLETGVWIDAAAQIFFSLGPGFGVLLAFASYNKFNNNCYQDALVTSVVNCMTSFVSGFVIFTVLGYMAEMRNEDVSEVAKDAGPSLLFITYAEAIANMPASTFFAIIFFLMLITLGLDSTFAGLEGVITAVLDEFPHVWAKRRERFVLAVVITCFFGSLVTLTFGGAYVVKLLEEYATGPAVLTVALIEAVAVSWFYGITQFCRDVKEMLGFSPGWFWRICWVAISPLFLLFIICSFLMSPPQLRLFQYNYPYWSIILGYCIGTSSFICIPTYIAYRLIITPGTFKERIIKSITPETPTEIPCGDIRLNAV

Experiments:
Conditions in all cases: hek293
[1] = biological target: Sodium-dependent noradrenaline transporter (Homo sapiens, UniProt P23975)
[2] = biological target: Sodium-dependent dopamine transporter (Homo sapiens, UniProt Q01959)
[3] = biological target: Sodium-dependent serotonin transporter (Homo sapiens, UniProt P31645)

SMILES | Ki [1] [nM] | Ki [2] [nM] | Ki [3] [nM]
COc1cccc(F)c1CC(c1ccccc1)N1CCNCC1 (stereo unspecified) | 27 | 2370 | 9
Fc1cccc(OC(F)F)c1CC(c1ccccc1)N1CCNCC1 (stereo unspecified) | 58 | > 3160 | 19
